Results published in paper PMC6317804, “The integration of pharmacophore-based 3D QSAR modeling and virtual screening in safety profiling: A case study to identify antagonistic activities against adenosine receptor, A2A, using 1,897 known drugs” (PLoS ONE, 2019).

Legend:
[1] = biological target: T1, adenosine receptor 2A (A2A) (Homo sapiens, UniProt P29274); assay: Functional antagonist assay monitoring cAMP (CEREP); details: concentration-response up to 10 μM;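 note: eight-point concentration-response from 0 to 10 µM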
[2] = biological target: T1, adenosine receptor 2A (A2A); assay: Competition binding assay using radioactive ligands (CEREP); details: fixed compound concentration of 10 μM;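 note: compounds screened at a single fixed 10 µM concentration for displacement of a radioligand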

- %inhibition, binding [2]: 97%
SMILES: CNC(=O)c1cnn(-c2nc(N)c3ncn([C@@H]4O[C@H](CO)[C@@H](O)[C@H]4O)c3n2)c1 [Regadenoson]
- IC50, cAMP, M [1]: N.E. (N.E., no effects. Results showing an inhibition or stimulation lower than 50% are considered to represent insignificant effects of the test compounds.)
